{"source": "patent US20050238679A1", "about": "“Taurine-containing preparations for improving the skin barrier” (Beiersdorf AG, priority 2004, published 2005)", "experiment": "interfacial tension towards water as measure of polarity of lipids", "type": "physicochemical", "details": "lipid/oil component against water; regarded as polar if less than 30 mN/m", "from_the_text": "Oils and fats differ from one another in their polarity, which is difficult to define. It has already been proposed to adopt the interfacial tension towards water as a measure of the polarity index of an oil or of an oily phase. Then, the lower the interfacial tension between this oily phase and water, the greater the polarity of the oily phase in question. According to the invention, the interfacial tension is regarded as one possible measure of the polarity of a given oil component.\nThe interfacial tension is the force which acts on an imaginary line one meter in length in the interface between two phases. The physical unit for this interfacial tension is conventionally calculated from the force/length relationship and is usually expressed in mN/m (millinewtons divided by meters). It has a positive sign if it endeavours to reduce the interface. In the converse case, it has a negative sign. For the purposes of the present invention, lipids are regarded as polar if their interfacial tension towards water is less than 30 mN/m.\nNonpolar oils are, for example, those which are chosen from the group of branched and unbranched hydrocarbons and hydrocarbon waxes, in particular Vaseline (petrolatum), paraffin oil, squalane and squalene, polyolefins and hydrogenated polyisobutenes. Among the polyolefins, polydecenes are the preferred substances. […]", "data": [{"smiles": "CCCCCCCCCCC(CO)CCCCCCCC", "note": "(stereo not shown) [EUTANOI ® G, Octyldodecanol]", "values": [{"measurement": "interfacial tension towards water", "value": 24.8, "unit": "mN/m"}]}]}
